Literature values as cited in patent US20040142910A1, “Sulfonated styrene copolymers for medical uses” (Aegis Biosciences LLC, priority 2002, published 2004).

Conditions: in vivo; cited from earlier work

Q: With `Cn1c(=O)c2[nH]cnc2n(C)c1=O` [theophylline] as the compound, how does the “toxic levels (blood)” value read?
A: approximately 20 µg/ml
